“And” between values parts separate entries of the source, which are not always exact repeats. Equal entries are not always repeated.
What was measured:
[1] = Intravital two-photon imaging of glomerular filtration and tubular transport in the kidney; conditions: for Tmax: individual renal tubule
[2] = Intravital two-photon imaging of hepatic transport after tail vein injection; conditions: for Half-life: liver
[3] = Intravital two-photon imaging of intestinal transport (duodenum, capillaries to lacteal); conditions: for Half-life: intestine
[4] = tubular lumina, range over imaged tubules

dextran
Fluorescence intensity in the distal tubules compared to the proximal tubules ([1]; CLF: approximately 9 min after injection, versus highest intensity in proximal tubules): approximately sixfold
Tmax ([1]; Fig. 7, Tubule: 1): 34.8 s
Tmax ([1]; Fig. 7, Tubule: 2): 31.2 s
Tmax ([1]; Fig. 7, Tubule: 3): 39 s
Tmax ([1]; Fig. 7, Tubule: 4): 25.8 s
Tmax ([1]; Fig. 7, Tubule: 5): 25.2 s
Tmax ([1]; Fig. 7, Tubule: 6): 25.8 s
Tmax ([1]; Fig. 7, Tubule: 7): 66 s
Tmax ([1]; Fig. 7, Tubule: 8): 43.2 s
Tmax ([1]; Fig. 7, Tubule: 9): 78 s
Tmax ([1]; Fig. 7, Tubule: 10): 66 s
Tmax ([1]; Fig. 7, Tubule: 11): 67.2 s
Tmax ([1]; Fig. 7, Tubule: 12): 24 s
Tmax ([1]; Fig. 7, Tubule: 13): 25.2 s
Tmax ([1]; Fig. 7, Tubule: 14): 25.2 s
Tmax ([1]; Fig. 7, Tubule: 15): 24 s
Tmax ([1]; Fig. 7, Tubule: 16): 34.2 s
Tmax ([1]; Fig. 7, Tubule: 17): 46.8 s
Tmax ([1]; Fig. 7, Tubule: 18): 42 s
Tmax ([1]; Fig. 7, Tubule: 19): 34.8 s
Tmax ([1]; Fig. 7, Tubule: 20): 61.8 s
Half-life ([1]; kidney, Bowman's space): 394 s
Half-life of filtration into Bowman's space compared to CLF ([1]; kidney, Bowman's space, dextran versus CLF): threefold
Half-life ([1]; kidney, glomerular capillaries): 1052 s
Half-life ([1]; kidney, proximal tubule): 637.2 s
Time to maximum (T max) fluorescence, distal tubules [1, 4]: 61.8 to 78 s
Time to maximum (T max) fluorescence, proximal tubules [1, 4]: 24 to 46.8 s
Enrichment in the LSEC/space of Dissé ([2]; after tail vein injection): no enrichment
Time after injection until detectable in the bile canaliculi ([2]; after tail vein injection): Approximately 15 min
Half-life ([2]; LSEC/Dissé space): 1149 s
Half-life ([2]; sinusoids, fluorescence intensity after tail vein injection (CLF 2.5 mg/kg, dextran 30 mg/kg)): 954 s and 954.6 s
Appearance in the liver sinusoids after tail vein injection ([2]; time after tail vein injection): 15 s
Transfer from intestinal blood capillaries into lymphatic vessels (lacteals), blood-lacteal barrier ([3]; after intravenous injection): efficiently taken up into lymphatic vessels
Transport from intestinal capillaries into intestinal crypt cells and secretion into the intestinal lumen ([3]; after intravenous injection): No transport
Transfer from intestinal blood capillaries into lymphatic vessels (lacteals), blood-lacteal barrier ([3]; after intravenous injection, listed as Dextran): crossed the blood-lacteal barrier within seconds
Half-life ([3]; blood vessels): 14.32 min
Half-life ([3]; lymph vessels, nd = no detected decrease in fluorescence within the recording time of 4 min (CLF)): 35.01 min
